Laboratory results: article PMC7723054
This is one part of the list.

T1: LIN28A (human?, UniProt Q9H9Z2 1-209)
T1 sequence: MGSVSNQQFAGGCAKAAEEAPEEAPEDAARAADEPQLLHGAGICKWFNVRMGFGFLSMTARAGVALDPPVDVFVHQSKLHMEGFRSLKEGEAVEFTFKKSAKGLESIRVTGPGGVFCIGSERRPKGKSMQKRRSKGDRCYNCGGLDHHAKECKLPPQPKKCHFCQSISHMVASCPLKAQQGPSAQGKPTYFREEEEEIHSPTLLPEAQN

T2: CIRBP (Homo sapiens, UniProt Q14011 1-172)
T2 sequence: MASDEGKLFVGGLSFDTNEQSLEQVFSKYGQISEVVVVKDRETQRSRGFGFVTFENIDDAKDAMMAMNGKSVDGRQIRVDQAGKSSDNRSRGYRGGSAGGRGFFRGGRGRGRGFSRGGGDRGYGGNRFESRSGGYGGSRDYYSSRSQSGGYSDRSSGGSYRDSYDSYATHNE

T3: DHX36 (Homo sapiens, UniProt Q9H2U1 1-1008)
T3 sequence: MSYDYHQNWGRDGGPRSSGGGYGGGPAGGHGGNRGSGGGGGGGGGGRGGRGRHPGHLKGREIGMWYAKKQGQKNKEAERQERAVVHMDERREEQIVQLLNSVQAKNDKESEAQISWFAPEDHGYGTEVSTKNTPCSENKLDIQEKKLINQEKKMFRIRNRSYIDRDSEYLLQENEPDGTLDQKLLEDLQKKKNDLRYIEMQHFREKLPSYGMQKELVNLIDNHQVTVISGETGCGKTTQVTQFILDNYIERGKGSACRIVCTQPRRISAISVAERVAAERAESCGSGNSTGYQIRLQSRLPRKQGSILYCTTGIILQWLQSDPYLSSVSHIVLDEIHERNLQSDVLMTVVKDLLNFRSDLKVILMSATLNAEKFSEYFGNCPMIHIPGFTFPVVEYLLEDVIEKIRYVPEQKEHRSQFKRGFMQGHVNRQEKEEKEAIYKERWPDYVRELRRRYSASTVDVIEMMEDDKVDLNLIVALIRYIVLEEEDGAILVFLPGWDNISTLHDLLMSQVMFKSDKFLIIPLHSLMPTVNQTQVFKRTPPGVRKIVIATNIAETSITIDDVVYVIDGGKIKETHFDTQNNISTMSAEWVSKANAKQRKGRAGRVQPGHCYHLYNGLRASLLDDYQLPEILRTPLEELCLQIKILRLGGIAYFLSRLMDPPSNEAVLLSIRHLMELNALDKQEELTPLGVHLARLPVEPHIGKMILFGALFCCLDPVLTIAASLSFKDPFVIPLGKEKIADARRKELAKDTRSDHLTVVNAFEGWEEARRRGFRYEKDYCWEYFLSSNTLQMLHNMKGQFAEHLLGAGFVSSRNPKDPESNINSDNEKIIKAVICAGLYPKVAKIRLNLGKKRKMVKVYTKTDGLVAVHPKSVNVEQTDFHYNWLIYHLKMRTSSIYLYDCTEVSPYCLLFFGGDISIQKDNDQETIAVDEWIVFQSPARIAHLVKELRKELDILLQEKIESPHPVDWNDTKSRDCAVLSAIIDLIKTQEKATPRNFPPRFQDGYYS

B1: hsa-mir-3182 (structured_RNA)
RNA: GGGAAAAGCUUGUUGACGCCAUUCCCGCGGUGUACGAAGUUUCAGCAGUCCGUGCAUCCGCCCUUCGAUGCUUGGGUUGCUGAAGCUUCGUGCAC
B2: NEAT1_ParasoR_ID45 (structured_RNA)
RNA: GGGAAGAGAAACCAUGCAAUUACAGCAGGGUGUACGAAGUUUCAGCUGUAUGGAUAGACCCCAUUUUGUUUAUUCACACAGCUGAAGCUUCGUGCAC
B3: hsa-mir-1180 (structured_RNA)
RNA: GGGAACAUUCAACGAGGACGCCGAAUGGGGUGUACGAAGUUUCAGCGGAAUAGUGCUCCUGGUUGUUUCGCUGAAGCUUCGUGCAC
B4: hsa-mir-548s (structured_RNA)
RNA: GGGAAACAGAGCCUGAGAGCGCAGAGUGGGUGUACGAAGUUUCAGCCCAUUAUUUUUAAUAAUUAUAAUAAUGGGCUGAAGCUUCGUGCAC
B5: hsa-mir-4302 (structured_RNA)
RNA: GGGAACGGAUUGCGUACCUGCAAACUGAGGUGUACGAAGUUUCAGCCGAGGUGGGCUGAAGCUUCGUGCAC
B6: hsa-mir-646 (structured_RNA)
RNA: GGGAAAUUACGAGGUGAUGCUGUGGCGCGGUGUACGAAGUUUCAGCGCUUUUCACCUGUGAUCCCAGGAGAGGAAGCGCUGAAGCUUCGUGCAC
B7: hsa-mir-374a (structured_RNA)
RNA: GGGAACAGGCGACCACCAGAGUGAGUAAGGUGUACGAAGUUUCAGCUAAGUGUUAUAGCACUUAGCUGAAGCUUCGUGCAC
B8: hsa-mir-3188 (structured_RNA)
RNA: GGGAGCCGAACGUACGUUUUCAGCUAUGGGUGUACGAAGUUUCAGCUCCCCUAGCGCGCCUUCUGGAGAGCUGAAGCUUCGUGCAC
B9: hsa-mir-1273h (structured_RNA)
RNA: GGGAAAGCGUGACAGCCGCUGAGAUUCGGGUGUACGAAGUUUCAGCGCAGUGUCGUGGUCACAGCUUGCUGCGCUGAAGCUUCGUGCAC
B10: NEAT1_ParasoR_ID23 (structured_RNA)
RNA: GGGACCCACAAGGAGGAUCAUAUGUUUUGGUGUACGAAGUUUCAGCGACAUAUAAUCAUGUAUAAUUUUGUCGCUGAAGCUUCGUGCAC
B11: hsa-mir-6827 (structured_RNA)
RNA: GGGAAAGUUACGGCGGUCAGCUUCAAACGGUGUACGAAGUUUCAGCCUGUGCUGUCUCUGAGCACCGGCUGAAGCUUCGUGCAC
B12: hsa-mir-3939 (structured_RNA)
RNA: GGGAAAGACAAUGGCCAGUCUGCGCGUAGGUGUACGAAGUUUCAGCCGUGCACGUACCUGUCACAUGUGUACGGCUGAAGCUUCGUGCAC
B13: hsa-mir-519a-1_519a-2 (structured_RNA)
RNA: GGGAAGCCAGACCGGUGAAUUUGGUGGAGGUGUACGAAGUUUCAGCCUUUCUGUUGUCUGAAAGAAAGGAAAGGCUGAAGCUUCGUGCAC

Target: T1, LIN28A
Assay: FOREST: bead pull-down of RNA structure library v1, barcode microarray; U1A/LIN28A: 20 mM HEPES pH 7.5, 80 mM KCl, 20 mM NaCl, 10% glycerol, 2 mM DTT, 0.1 ug/uL BSA, 4 C; BG4/CIRBP/DHX36: 10 mM Tris-HCl pH 7.5, 100 mM KCl (or LiCl),; high values mean tight binding

Binder	binding signal [z-score]
B1	-0.326
B2	-0.327
B3	-0.328
B4	-0.329
B5	-0.334
B6	-0.337
B7	-0.342
B8	-0.346
B9	-0.346
B10	-0.353
B11	-0.354
B12	-0.359
B13	-0.36

Target: T2, CIRBP
Assay: as above

Binder	binding signal [z-score]
B1	-0.174
B2	-1.39
B3	-0.217
B4	-0.0567
B5	-0.828
B6	1.13
B7	0.584
B8	-0.295
B9	-0.745
B10	-0.564
B11	1.3
B12	-0.339
B13	-1.61

Target: T3, DHX36
Assay: as above

Binder	binding signal [z-score]
B1	-0.359
B2	-0.168
B3	-0.0107
B4	0.491
B5	-1.62
B6	0.163
B7	-0.916
B8	-0.372
B9	-0.617
B10	-1.25
B11	0.011
B12	0.0143
B13	-0.656
